G9a block: G9a (human) methyltransferase inhibition; Q96KQ7; G9a H3K9 monomethylation, AlphaScreen, 2 h; Potency, µM (titrated, usually from 102 µM), actives largely listed as inhibitors; 350,000 compounds, 8.8% hits; further: nearly all actives have a fitted effect of over 75% in size
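Readings reflect AlphaScreen signal from monomethyl-H3K9 antibody detection. HMT at 20 nM; substrate b-H3K9 500 nM; cofactor SAM 20 uM; 2 h RT reaction; compounds tested as titrations in qHTS with 15 min preincubation.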
ALDH1A1 block: ALDH1A1 (human) enzyme inhibition | 220,000 compounds, 7.3% hits | Potency, µM (series often up to 75.3 µM), actives largely listed as inhibitors | P00352 | Purified ALDH1A1, NADH fluorescence, propionaldehyde substrate | AID 1030; active means well fitted inhibition curve with a large enough effect, not every such curve was filed as active; inconclusive means small, poorly fitted or top-dose-only effect, or another doubt; inactive means no such curve, though single readings can be large or run the other way
miR-21 reporter: miR-21 reporter, rising signal | AID 2288 | HeLa miR-21 FLuc reporter, luciferase, 48 h | 340,000 tested, under 10 active | Potency, µM (titrated, usually from 38.3 µM); active = well fitted rising curve with a large enough effect; inconclusive = small, poorly fitted or top-dose-only effect; inactive = no such curve, though single readings can be large or run the other way;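 also: miR-21 action dims this reporter so a rising signal means less miR-21 action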
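HeLa cells stably expressing CMV-driven firefly luciferase with a downstream miR-21 binding sequence, endogenously expressing miR-21, were treated with titrations (up to about 40uM final) for 48 hours at 37 degree Celsius. Luciferase luminescence was read after lysis.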
Sfp inh: Sfp phosphopantetheinyl transferase inhibition; Potency, µM, hits mostly inhibitors; Q9F4F7; Biochemical Sfp PPTase activity, qHTS; 310,000 compounds, 3.5% hits;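 further: the enzyme is Sfp with the accession as filed and its product quenches rhodamine fluorescence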
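Fluorescence-quenching assay: 15 nM Sfp-PPTase preincubated 15 min at room temperature with compound, then 5 uM rhodamine-CoA and 12.5 uM BHQ-2-labelled YbbR peptide added. Fluorescence (ex 525/em 598 nm) read at start and after 30 min; difference gives rate.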
LMNA splice mod: modulators of lamin A splicing. HeLa LMNA splicing GFP/RFP minigene ratio, 48 h. Potency, µM (series often up to 46.1 µM), hits mostly inhibitors. 200,000 compounds, 0.01% hits. AID 1487; active means well fitted inhibition curve with a large enough effect in the signal ratio, with a control signal flat, not every such curve was filed as active; inconclusive means small, poorly fitted or top-dose-only effect, or effect the other way, or a change in a side signal; the % refers to the signal ratio
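Read-out is the ratio of GFP to DsRed2 object intensity, acquired by 488 nm laser-scanning cytometry on HeLa lamin A-EGFP minigene reporter cells. Compound incubation 48 hrs at 37 °C in Opti-MEM with 2% FBS; DMSO 0.5% final.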
JMJD2E inh: blocks human JMJD2E demethylase activity. JMJD2E catalytic domain, FDH-coupled NADH fluorescence (FDH is formaldehyde dehydrogenase). Potency, µM (highest dose often 57.1 µM), most hits filed as inhibitors. 230,000 compounds, 1.6% hits; active means well fitted inhibition curve with a large enough effect, not every such curve was filed as active; inconclusive means small, poorly fitted or top-dose-only effect, or another doubt; inactive means no such curve, though single readings can be large or run the other way; further: nearly all actives have a fitted effect of over 50% in size
Numbers stand for hits; 0 = inactive; ? = inconclusive; - = not tested or not shown; [ ] = dose if it differs, or a comment. An excerpt weighted towards active compounds, which were near 13% of everything screened. Unless noted, the call rests on the fitted dose curve; in most records, active means well fitted curve in the direction sought with a large enough effect; inconclusive means small, poorly fitted or top-dose-only effect, or another doubt; inactive means no such curve, though single readings can be large; an effect the other way counts as inactive or inconclusive.

SMILES	G9a block	ALDH1A1 block	miR-21 reporter	Sfp inh	LMNA splice mod	JMJD2E inh
O=C1/C(=C\c2ccc(O)c(O)c2)SC(=S)N1Cc1ccccc1	4µM	-	0	0	-	-
O=C1CS(=O)(=O)C2(C(=O)Nc3ccccc32)N1c1cccc(Cl)c1 (stereo not drawn)	22µM	-	0	-	0	-
CNC(C)C#Cc1ccc2c(=O)c3c(OC)cccc3oc2c1 (stereo not drawn)	-	-	0	0	-	-
COc1cccc2sc3ccc(NCCC4CCCN4C)cc3c(=O)c12 (stereo not drawn)	-	-	0	0	-	-
COc1cccc2sc3ccc(C#CC4(N)CCCCC4)cc3c(=O)c12	-	-	0	79µM	-	-
CNC(C)C#Cc1ccc2oc3cccc(OC)c3c(=O)c2c1 (stereo not drawn)	45µM	-	0	0	-	-
CNC(C)C#Cc1ccc2sc3cccc(OC)c3c(=O)c2c1 (stereo not drawn)	71µM	-	0	0	-	-
COc1cccc2oc(SC)cc(=O)c12	0	?	-	0	-	-
COc1cccc2oc3ccc(C#Cc4ccccn4)cc3c(=O)c12	50µM	-	0	0	-	-
CCCOc1cccc(C(=O)Nc2ccc(-c3nc4ccccc4s3)c(Cl)c2)c1	?	-	0	-	-	-
CC1=CC(C)C(C[N+]2(C)CCCCC2)C(C)C1 (stereo not drawn)	25µM	0	0	0	0	0
Cc1cc(C)cc(NC(=O)c2ccccc2CC[N+](=O)[O-])c1	0	2.8µM	0	0	0	0
Cc1ccc(NC(=O)CN(C)S(=O)(=O)c2ccc3c(c2)n(C)c(=O)c(=O)n3C)cc1C	0	-	0	-	-	-
Cc1ccc(NC(=O)N2CCC(NC(=O)c3cccc(C)c3)CC2)cc1	7.9µM	-	0	0	-	-
CCCNC(=S)N1CCC(NC(=O)c2cccc(C)c2)CC1	-	-	0	0	-	-
Cc1cccc(C(=O)NC2CCN(C(=O)NCc3ccccc3)CC2)c1	11µM	-	0	0	-	-
C/C(=N\OCC(=O)OCC(=O)NC(=O)c1ccccc1)c1ccc2c(c1)OCO2	0	-	-	-	-	-
O=C(CSc1nnc(-c2ccncc2)o1)c1ccc2c(c1)OCCO2	0	0.79µM	0	0	-	0
O=C(CSc1nnc(-c2ccc(O)cc2)o1)NNC(=O)c1ccncc1	18µM	-	0	0	-	-
O=C(CSc1nnc(CNc2ccccc2)o1)c1ccc2c(c1)OCCO2	0[12.7 µM]	14µM	0	0	0	0
O=C(CSc1nnc(-c2ccc(Cl)cc2)o1)c1ccc([N+](=O)[O-])cc1	0	-	0	-	-	-
O=C(CSc1nnc(-c2ccncc2)o1)c1cccc([N+](=O)[O-])c1	0[12.7 µM]	14µM	0	0	0	0
NC(=O)CSc1oc(-c2cccs2)nc1S(=O)(=O)c1ccc(Br)cc1	0	-	0	-	-	-
CC[C@@H](C)[C@@H](C(=O)Nc1ccc(C)cc1)N1Cc2ccccc2C1=O	0	-	0	-	-	-
CC(=O)N1CCc2c(sc3c2c(=O)n(-c2ccc(C)cc2)c(=O)n3Cc2ccccc2C)C1	0	-	0	-	-	-
SMILES	G9a block	ALDH1A1 block	miR-21 reporter	Sfp inh	LMNA splice mod	JMJD2E inh
COc1ccc(NCc2nnc(SCC(=O)c3ccc(OC)cc3)o2)cc1	0[12.7 µM]	16µM	0	0	0	0
COc1ccc(NC(=O)COC(=O)/C=C/C(=O)OCC(=O)Nc2ccc(OC)c(Cl)c2)cc1Cl	?	11µM	0	79µM	0	0
CCOC(=O)/C=C/C(=O)OCC(=O)Nc1ccc(Cl)cc1Cl	0	25µM	0	0	0	0
COc1ccc(NC(=O)COC(=O)c2ccc(-n3cnnn3)cc2)cc1Cl	40µM	-	-	-	-	-
O=C(COC(=O)c1ccc(-n2cnnn2)cc1)c1ccc(Br)cc1	0	-	-	-	-	-
COC(=O)c1ccc(COC(=O)c2ccc(-n3cnnn3)cc2)o1	0	20µM	0	?	0	0
Cc1c(C(=O)Nc2ccc(Br)cc2F)sc2ncnc(N(C)C3CCCCC3)c12	0	-	0	-	0	-
CC(C)(C)C1CCC(=O)N(CCOc2ccccc2)CC1 (stereo not drawn)	-	-	0	0	-	-
CN(C)C1(CNC(=O)C2CCN(S(=O)(=O)c3cccc(C(F)(F)F)c3)CC2)CCCCC1	0	-	0	0	-	-
O=C(CSc1nnc(-c2ccco2)o1)c1ccc[nH]1	40µM	?	0	?	-	0
O=C(CSc1nnc(-c2ccco2)o1)c1ccccc1	0	?	0	56µM	0	0
Cc1cccc(-c2nnc(SCc3ccccc3)o2)c1	0[12.7 µM]	0	0	0	0	0

Bioassay records deposited in PubChem BioAssay by National Center for Advancing Translational Sciences (NCATS).
